The results in this text go back to ChEMBL document CHEMBL3861988, “Discovery of Selective Inhibitors Targeting Acetylcholinesterase 1 from Disease-Transmitting Mosquitoes” (J Med Chem, 2016).

Assay [1] is described as follows: Selectivity ratio of IC50 for human recombinant AChE to IC50 for Anopheles gambiae recombinant AChE1.
Assay [2] is described as follows: Selectivity ratio of IC50 for human recombinant AChE to IC50 for Aedes aegypti recombinant AChE1.

For `CCN1CCN(C2CCN(C(=O)COc3ccc(-c4ccccc4)cc3)CC2)CC1`, the Ratio IC50 in assay [1] and in assay [2] was 141 each time.
